{"source": "patent EP4837574A1", "about": "“USE OF DNJ OR DERIVATIVE THEREOF IN PREPARING ANTI-SENESCENCE DRUG” (dated 2026)", "key": {"[1]": {"system": "human iPSC-derived mesenchymal stem cells (iPSC-MSC)", "assay": "SA-β-Gal staining, H2O2-induced senescence, pre-administration (Example 7)", "conditions": "pre-administration 24 hours; 40 µM H2O2 2 hours, then new medium 24 hours; FIG. 15", "method": "The workflow for SA-β-Gal staining of the cells is as follows: For the cells cultured in a 6-well plate, a cell culture solution was sucked away, the cells were washed 1 time with PBS, and 1 mL of an SA-β-Gal staining fixative was added for fixation at room temperature for 15 minutes. For other types of culture plates, the dosages of the fixative and subsequent solutions were used in operation with reference to this ratio. The cell fixative was sucked away, and the cells were washed 3 times with PBS, for 3 minutes each time. PBS was sucked away, and 1 mL of a staining working solution was added to each well. A method for formulating the staining working solution is as follows: A β-galactosidase staining solution A (10 µL), a β-galactosidase staining solution B (10 µL), a β-galactosidase staining solution C (930 µL), and an X-Gal solution (50 µL) were used. The cells were incubated overnight at 37°C, and the 6-well plate was sealed with a parafilm or a plastic wrap to prevent evaporation. Photographing was performed for record using a 20× objective under a microfluidic live cell real-time analysis system (Thermo), cell counting was performed using ImageJ software (National Institutes of Health, v 1.8.0), and ANOVA data analysis of multiple groups (mean ± SD) was performed using Graphpad Prism software (GraphPad Software, v 9.0.0).\nCulture conditions for human iPSC-derived mesenchymal stem cells (iPSC-MSC) are as follows: The cells were cultured in a MesenCult-ACF Plus Medium (STEMCELL, Cat#05446) and passaged and seeded when cultured to a density of 70% to 80% in a culture dish. After the cells were washed 1 time with DPBS (Gibco), an ACF Enzymatic Dissociation Solution (STEMCELL, Cat#05426) was added for digestion for 2-3 minutes, and then an ACF Enzyme Inhibition Solution (STEMCELL, Cat#05426) was added to terminate the digestion. The cells were pipetted to be detached, collected into a 15 mL centrifuge tube, and centrifuged at 300 G for 8 minutes. The supernatant was discarded, a new MesenCult-ACF Plus Medium was added, and the cells were pipetted uniformly, seeded into a 12-well or 24-well plate (at a density of 70% to 80%), and cultured in a 5% CO2 incubator at 37°C. After cell adherence, the next operation was performed.\nThe anti-aging activity of drugs was detected in iPSC-MSC. In iPSC-MSC, stimulation was performed with 40 µM H2O2 for 2 hours, followed by replacement with a new culture medium for continued culture for 24 hours to construct a cell senescence model. Compared with a control group, a significant increase in the number of SA-β-Gal staining-positive cells in an H2O2 group confirms successful establishment of an iPSC-MSC senescence model. The pharmacological activity of DNJ or its derivatives was detected in the method of pre-administration treatment for 24 hours."}, "SASP factors": {"system": "SASP factors", "assay": "qRT-PCR of SASP factor mRNA, replicative senescence of Huvec cells by continuous passage (Example 9)", "conditions": "DNJ 24 hours; senescent cells of the 6th, 9th, and 12th generations; compared with a control group; FIG. 17", "method": "The anti-aging activity of drugs was detected in a replicative senescence model of human umbilical vein endothelial cells induced by continuous passage. A basic method refers to Example 1, with differences in the modeling method as follows: cell passage was performed when the cells grew to a density of approximately 80%, and the cells of the 4th, 6th, 9th, and 12th generations were used for experiments. Compared with the cells of the 4th generation, the cells of the 6th, 9th, and 12th generations gradually became senescent.\nExperimental operation and grouping: Passage operation was performed after the cells grew to a density of 70% to 80%. When passaged to the 4th, 6th, 9th, and 12th generations, the cells were divided into a control group and an administration group, respectively. The control group was cultured in a normal culture medium, and the administration group was added into a culture medium containing 30 µM DNJ for culture. After 24 hours, the cells were subjected to SA-β-Gal staining operation.\nThe activity of drugs to inhibit a senescence-associated inflammatory phenotype was detected in a stress-induced senescence model of human umbilical vein endothelial cells induced by H2O2. […]"}}}
{"compound": "OC[C@H]1NC[C@H](O)[C@@H](O)[C@@H]1O", "values": [{"measurement": "number of SA-β-Gal staining-positive iPSC-MSC cells", "setting": "[1]", "result": "reduce"}, {"measurement": "increase in the mRNA expression of SASP factors", "setting": "SASP factors", "result": "significantly inhibited"}]}
